These are literature values, as cited in patent US11357232B2, “Methods of improving soil health, growth and vigor of perennial grass communities” (Edaphix, LLC, priority 2013, dated 2022).

In the series the test system is humans. As to conditions: U.S. EPA, 2005 carcinogen assessment guidelines; cited from earlier work.

As for `OB(O)O` [Boric acid], the carcinogenicity classification entry was “not likely to be carcinogenic to humans”.
